Test results: US11548908B2

Sequences of proteins named here, by UniProt entry; tags and fusion partners are left off.
UniProt P17931, whole entry: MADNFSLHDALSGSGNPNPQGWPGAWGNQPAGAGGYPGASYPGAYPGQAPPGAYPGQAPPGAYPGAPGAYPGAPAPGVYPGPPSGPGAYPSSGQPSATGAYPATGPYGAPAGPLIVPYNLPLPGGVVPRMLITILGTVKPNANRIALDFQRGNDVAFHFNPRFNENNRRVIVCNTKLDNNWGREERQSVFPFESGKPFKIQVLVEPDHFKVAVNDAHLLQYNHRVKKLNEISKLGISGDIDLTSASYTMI

Legend:
[1] = test system: E-selectin; assay: E-selectin competitive binding assay (ELISA; inhibition of sLe^a binding to immobilized E-selectin/Ig chimera); settings: read-out: ELISA IC50 (E-Selectin Antagonist Activity), biotinylated sLe^a polyacrylamide with streptavidin/HRP, 2 hours at room temperature
Source text: An inhibition assay may be used to screen for antagonists of E-selectin. For example, an assay may be performed to characterize the capability of a compound described herein to inhibit (i.e., reduce, block, decrease, or prevent in a statistically or biologically significant manner) interaction of E-selectin with sLe^a or sLe^x. The inhibition assay may be a competitive binding assay, which allows the determination of IC50 values. By way of example, E-selectin/Ig chimera may be immobilized onto a matrix (e.g., a multi-well plate, which may be made from a polymer, such as polystyrene; a test tube, and the like); a composition may be added to reduce nonspecific binding (e.g., a composition comprising non-fat dried milk or bovine serum albumin or other blocking buffer routinely used by a person skilled in the art); the immobilized E-selectin may be contacted with the candidate compound in the presence of sLe^a comprising a reporter group under conditions and for a time sufficient to permit sLe^a to bind to the immobilized E-selectin; the immobilized E-selectin may be washed; and the amount of sLe^a bound to immobilized E-selectin may be detected. Variations of such steps can be readily and routinely accomplished by a person of ordinary skill in the art. […]

[2] = molecular target: galectin-3 (Homo sapiens, UniProt P17931); assay: Galectin-3 ELISA assay (inhibition of galectin-3 binding to Galβ1-3GlcNAc polymer); settings: read-out: ELISA IC50 (Galectin-3 Antagonist Activity), Galβ1-3GlcNAc polymer on streptavidin-coated plate, 1.5 hours at room temperature
Source text: An inhibition assay may be used to screen for antagonists of galectin-3. For example, an assay may be performed to characterize the capability of a compound described herein to inhibit interaction of galectin-3 with a Galβ1-3GcNAc carbohydrate structure. The inhibition assay may be a competitive binding assay, which allows the determination of IC50 values. By way of example, a Galβ1-3GlcNAc polymer may be immobilized onto a matrix; a composition may be added to reduce nonspecific binding; the immobilized Galβ1-3GlcNAc polymer may be contacted with the candidate compound in the presence of galectin-3 group under conditions and for a time sufficient to permit galectin-3 to bind to the immobilized Galβ1-3GlcNAc polymer; the immobilized Galβ1-3GlcNAc polymer may be washed; and the amount of galectin-3 bound to the immobilized Galβ1-3GlcNAc polymer may be detected. Variations of such steps can be readily and routinely accomplished by a person of ordinary skill in the art.
Galectin-3 antagonists were evaluated for their ability to inhibit binding of galectin-3 to a Galβ1-3GlcNAc carbohydrate structure. The detailed protocol was as follows. A 1 ug/mL suspension of a Galβ1-3GlcNAcβ1-3Galβ1-4GlcNAcβ-PAA-biotin polymer (Glycotech, catalog number 01-096) was prepared. […] The absorbance at 450 nm (A450) was measured using a FlexStation 3 plate reader (Molecular Devices). […]

IC50 [1]: 780 nM
IC50 [2]: 110 nM
SMILES: CCC1CC(C(=O)NCCNC(=O)C2CC(OC3OC(CO)C(O)C(n4cc(-c5cccc(F)c5)nn4)C3O)C(O)C(n3cc(-c4cccc(F)c4)nn3)C2)CC(OC2OC(CO)C(O)C(OC(CC3CCCCC3)C(=O)N3CCC3)C2NC(C)=O)C1OC1OC(C)C(O)C(O)C1O (centres unmarked)
